Our source for the Ratio values is ChEMBL document CHEMBL1128680, “6-substituted 2,4-diamino-5-methylpyrido[2,3-d]pyrimidines as inhibitors of dihydrofolate reductases from Pneumocystis carinii and Toxoplasma gondii and as antitumor agents” (J Med Chem, 1995).

The nature of this test: Ratio of the inhibitory concentrations against Toxoplasma gondii […] and Toxoplasma gondii DHFR.

`COc1cc(NCc2cnc3nc(N)nc(N)c3c2C)cc(OC)c1OC`: the Ratio was 3110.
